Test system: DR1 (HLA-DR molecules)
Details: read-out: Inhibition of peptide binding IC50 DR1

IC50: > 100 µM
SMILES: CC(=O)N[C@H](C(=O)N[C@@H](CCCNC(=N)N)C(=O)N1Cc2ccccc2C[C@H]1C(=O)N[C@@H](Cc1ccccc1)C(=O)N1CCCC[C@H]1C(N)=O)C1CCCC1 [Ac(Cpg)R(Tic)F(hPro), Ac(Cpg)R(Tic)F(homo Pro)]

— patent US8598312B2, “Inhibitors of antigen presentation by MHC class II molecules” (Provid Pharmaceuticals, Inc., priority 2003, dated 2013)
